Assay results published in article PMC8506653 (Clinical cancer research : an official journal of the …, 2021).

Test system: cells exogenously expressing FLT3 mutants, including FLT3-ITD, FLT3-D835H, FLT3-D835Y and FLT3-ITD-D835Y
Assay: proliferation of cells exogenously expressing FLT3 mutants
Conditions: read-out: IC50, proliferation

CCc1nc(C(N)=O)c(Nc2ccc(N3CCC(N4CCN(C)CC4)CC3)c(OC)c2)nc1NC1CCOCC1 [gilteritinib]
IC50: 0.92 to 2.1 nM
